Some of the results follow. Some tests of the compounds listed are not included; inactive here does not mean inactive elsewhere. Inconclusive results are not listed. Activity calls are given as the source filed them. The call rests on the fitted dose curve; in most records, active means well fitted inhibition curve with a large enough effect in the signal ratio, with a control signal flat (not every such curve was filed as active); inconclusive means small, poorly fitted or top-dose-only effect, or effect the other way, or a change in a side signal; inactive means flat fitted curve, though single readings scatter; the % refers to the signal ratio.

This test can be described thus: qHTS Assay to Find Inhibitors of Chronic Active B-Cell Receptor Signaling. The settings on record: ABC-DLBCL IkBa-CBG/CBR reporter, luminescence ratio (green luciferase fused to IkBa over red control in TMD8 lymphoma cells), 4 h; at 46.1 µM (top of the series). An excerpt:
NIH Molecular Libraries Probe Production Network [MLPCN] NIH Chemical Genomics Center [NCGC] MLPCN Grant: 1 R03 DA031086-01A1 PI Name: Dr. R. Eric Davis NCGC Assay Overview: Diffuse large B-cell lymphoma (DLBCL) is the most common category of non-Hodgkin lymphoma, with ~20,000 new cases per year in the United States. DLBCL should be regarded as a collection of different neoplasms. Microarray gene expression analysis has defined two principal types of DLBCL, named for their similarity to normal B cell stages or activation states: a germinal center B-cell (GCB) type, and an activated B-cell (ABC) type. In ABC-DLBCL, a constitutive high-level activity of the NF-kappaB family of transcription factors has been observed (1) and NF-kappaB target genes are more highly expressed in ABC primary tumors than in GCB tumors. Functional studies have shown a constitutive high-level activity of the IkappaB (inhibitor of kappa-B) kinase (IKK) complex. […] Further analysis of DLBCL primary tumors for NF-kappaB target gene expression imply that although CARD11 is required for constitutive IKK activity in all ABC-DLBCL lines, mutations in CARD11 may be the root cause of IKK activation only in lines or tumors with such mutations. In other words, CARD11 mutations may explain NF-kappaB activation in only 10% of ABC-DLBCL cases. […] This process has been termed 'chronic active BCR signaling' (CABS). The goal of this screen is to find small-molecule inhibitors of the CABS pathway found in ABC-DLBCL lines using a cell-based assay that measures IkappaBalpa stability, which has already been extensively validated in the OCI-Ly3 line (PubChem AID:445; REF: 4). […] The assay uses green (CBG68) and red (CBR) emitting beetle luciferases [Chroma-GloTM developed by Promega Corp.] where the green luciferase is fused to IkappaBalpha and the red luciferase is present in its native state. Both luciferase genes are stably present in the TMD8 human ABC DLBCL cell line, but their expression is under the control of tetracycline-inducible promoters. Following the addition of doxycycline to induce expression of the luciferases, the green luminescence in control cultures rises only slowly because the CBG fusion partner IkappaBalpha is targeted by IKK activity for rapid degradation. In contrast, green luminescence rises rapidly in the presence of proteasome inhibitors or IKK inhibitors. The rise in red luminescence of CBR is not affected by proteasome or IKK inhibitors, and serves as normalization for cell number and nonspecific effects. Compounds were screened as a concentration-titration series that ranged from 46 uM to 3 nM.
NCGC Assay Protocol Summary: Cells were seeded in 1536-well plates at 5000 cells/4uL in IMDM medium containing 0.5% FBS, w/o phenol red, 1% penicillin/streptomycin. Then, 23 nL of compounds or DMSO were delivered to each well using a pin tool. One uL 20ng/ml doxycycline was then dispensed into white solid 1536-well plates and the plates were incubated at 37C/5% C02 in a cell incubator for 4 hrs. Then 4 uL luminescent substrate mix (in-house prepared: 150 mM Tris-Cl, pH 7.6, 3 mM MgCl2, 1% Triton X-100, 5 mM DTT, 0.2 mM CoA, 0.15 mM ATP, 5 mM D-luciferin, final concentrations) was added to each well. The plate was incubated at r.t. for 10-15 min. The plates were measured on a ViewLux plate reader for green luminescence (540/20 nm filter) and red luminescence (618/8 nm filter). The green and red luminescent signals were corrected for red and green luminescence filter overlap using previously determined filter calibration constants (determined using the procedure outlined in the Promega Technical Manual; REF 4). The %Activity was determined from the ratio of corrected green/red luminescent values. MG132 were used as control. […] Red luminescent %Activity was normalized to the difference between red luminesence in basal cells (0%Activity) and zero luminescence (-100% Activity). […]
As to `CN(C)C1CCCC1OC(=O)C(O)(c1ccccc1)c1ccccc1` (stereo not given), the activity change, negative = inhibition is inactive: 7.89%. Take `CN(C)c1ccc(C(=O)NCC2(N(C)C)CCCCC2)cc1`: the activity change, negative = inhibition was inactive: 2.51%.

`Cc1ccccc1C(=O)NCC1(N2CCCCC2)CCCCC1`: the activity change, negative = inhibition is inactive: 2.1%. In the case of `O=C(NCC1(N2CCCCC2)CCCCC1)c1cc(F)c(F)cc1Cl`, the activity change, negative = inhibition is inactive: -0.797%. Turning to `C=CCN1CCN(CCOC(=O)C(O)(c2ccccc2)c2ccccc2)CC1`, the activity change, negative = inhibition was inactive: 18.3%. For `Cc1cc(C(=O)NCC2(N3CCCCC3)CCCCC2)ccc1[N+](=O)[O-]` the value was inactive: 11.3%. For `CCN1CCCC(OC(=O)C2(O)c3ccccc3C=Cc3ccccc32)C1` (stereo not given), the activity change, negative = inhibition was inactive: 0.495%. The value for `COc1ccc(C(=O)NCC2(N(C)C)CCCCC2)cc1` was inactive: 11%. `O=C(NCC1(N2CCCCC2)CCCCC1)c1cc([N+](=O)[O-])ccc1Cl`: the activity change, negative = inhibition was inactive: -1.54%. For `CN1[C@@H]2CC[C@H]1CC(OC(=O)C(O)(c1ccccc1)c1ccccc1)C2` (stereo not given in full) the value was inactive: -10.2%; for `CC(C)N1C(=O)CC2(CCN(CCOC(=O)C(O)(c3ccccc3)c3ccccc3)CC2)C1=O`, inactive: -1.81%. The value for `COc1cc(SC)ccc1C(=O)NCC1(N(C)C)CCCCC1` was inactive: -0.216%; that for `CCN(CC)CC(C)C(C)OC(=O)C(O)(c1ccccc1)c1ccccc1` (stereo not given) was inactive: 5.32%. For `Cc1ccc(C(=O)NCC2(N3CCCCC3)CCCCC2)cc1`, the activity change, negative = inhibition was inactive: 6.3%. With `COc1ccc(Br)c(C(=O)NCC2(N3CCCCC3)CCCCC2)c1`, the activity change, negative = inhibition is inactive: -12.4%. For `CN(C)c1cccc(C(=O)NCC2(N(C)C)CCCCC2)c1` the value was inactive: 3.46%; for `CC(C)Oc1ccc(C(=O)NCC2(N(C)C)CCCCC2)cc1`, inactive: 3.44%; for `CN(C)C1(CNC(=O)c2ccc(Br)cc2)CCCCC1`, inactive: 2.3%. The value for `COc1cccc(C(=O)NCC2(N3CCCCC3)CCCCC2)c1` was inactive: 3.01%; that for `O=C(NCC1(N2CCCCC2)CCCCC1)c1cccc(Cl)c1` was inactive: 1.25%.
